US20030049284A1, “Method of increasing the solubility of alphahydrocarboxilic salts, and products obtained by the method” (priority 2001, published 2003)

How the values were obtained:
[1] = water at 20° C.; literature value (index Merck Ref. 1675; F.C.C. IV Ed. Page 153); cited from earlier work
[2] = Solubility in water (comparative data and examples); assay type: physicochemical; conditions: water at the same temperature (20-25° C.)

Calcium gluconate
solubility in water [1]: 30 gr/1000 ml | limited solubility in water [2]: 30-80 gr./l
